Among the data in ChEMBL document CHEMBL1125020 (J Med Chem, 1990) are Ki values, retold here.

By UniProt entry, the sequences of proteins in these tests, tags left out.
UniProt P25099, whole entry: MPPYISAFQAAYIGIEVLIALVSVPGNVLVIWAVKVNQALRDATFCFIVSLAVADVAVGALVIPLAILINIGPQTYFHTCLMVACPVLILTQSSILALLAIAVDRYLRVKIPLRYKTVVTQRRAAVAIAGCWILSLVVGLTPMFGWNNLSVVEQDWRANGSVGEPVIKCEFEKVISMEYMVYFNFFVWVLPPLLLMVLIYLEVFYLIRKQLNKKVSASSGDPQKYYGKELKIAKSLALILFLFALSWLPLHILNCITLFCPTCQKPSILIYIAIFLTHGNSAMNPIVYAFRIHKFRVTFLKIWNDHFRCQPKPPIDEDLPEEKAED

The experiment concerns the target Adenosine receptor A1 (Rattus norvegicus, UniProt P25099).

On to `OC[C@H]1O[C@@H](n2cnc3c(NCc4ccccc4)ncnc32)[C@H](O)[C@@H]1O` [N6-BENZYLADENOSINE], for which the Ki (commonly the dissociation constant of the complex between target and ligand, obtained from inhibition or displacement) turned out to be 125 nM.
